Test results from article PMC6747318, “Mutual Enhancement of Opioid and Adrenergic Receptors by Combinations of Opioids and Adrenergic Ligands Is Reflected in Molecular Complementarity of Ligands: Drug Development Possibilities” (International Journal of Molecular Sciences, 2019).

Sequences of proteins named here, by UniProt entry; tags and fusion partners are left off. A change or cut given only in a name is not applied to a line headed by its entry.
UniProt P35372, whole entry: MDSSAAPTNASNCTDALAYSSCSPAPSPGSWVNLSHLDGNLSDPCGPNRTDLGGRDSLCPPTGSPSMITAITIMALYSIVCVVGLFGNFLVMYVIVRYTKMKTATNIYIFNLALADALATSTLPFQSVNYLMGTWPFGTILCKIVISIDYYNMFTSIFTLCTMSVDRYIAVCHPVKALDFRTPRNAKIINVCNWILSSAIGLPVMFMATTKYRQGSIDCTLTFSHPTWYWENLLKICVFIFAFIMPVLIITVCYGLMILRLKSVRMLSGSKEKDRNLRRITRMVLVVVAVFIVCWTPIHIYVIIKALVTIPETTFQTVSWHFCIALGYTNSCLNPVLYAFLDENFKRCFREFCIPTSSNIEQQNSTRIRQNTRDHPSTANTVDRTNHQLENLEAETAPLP
UniProt P21728: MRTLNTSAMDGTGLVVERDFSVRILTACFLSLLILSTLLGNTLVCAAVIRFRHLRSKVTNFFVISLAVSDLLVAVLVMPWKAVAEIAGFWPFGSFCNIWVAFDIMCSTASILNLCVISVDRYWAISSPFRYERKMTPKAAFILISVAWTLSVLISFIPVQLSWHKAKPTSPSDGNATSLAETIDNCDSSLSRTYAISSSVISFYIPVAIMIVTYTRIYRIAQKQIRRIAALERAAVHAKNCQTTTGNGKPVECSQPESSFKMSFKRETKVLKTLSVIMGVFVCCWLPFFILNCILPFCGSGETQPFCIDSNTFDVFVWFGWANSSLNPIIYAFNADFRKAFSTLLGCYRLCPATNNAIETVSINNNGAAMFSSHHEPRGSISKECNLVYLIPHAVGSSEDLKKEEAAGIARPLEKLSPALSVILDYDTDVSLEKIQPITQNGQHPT
UniProt P06213: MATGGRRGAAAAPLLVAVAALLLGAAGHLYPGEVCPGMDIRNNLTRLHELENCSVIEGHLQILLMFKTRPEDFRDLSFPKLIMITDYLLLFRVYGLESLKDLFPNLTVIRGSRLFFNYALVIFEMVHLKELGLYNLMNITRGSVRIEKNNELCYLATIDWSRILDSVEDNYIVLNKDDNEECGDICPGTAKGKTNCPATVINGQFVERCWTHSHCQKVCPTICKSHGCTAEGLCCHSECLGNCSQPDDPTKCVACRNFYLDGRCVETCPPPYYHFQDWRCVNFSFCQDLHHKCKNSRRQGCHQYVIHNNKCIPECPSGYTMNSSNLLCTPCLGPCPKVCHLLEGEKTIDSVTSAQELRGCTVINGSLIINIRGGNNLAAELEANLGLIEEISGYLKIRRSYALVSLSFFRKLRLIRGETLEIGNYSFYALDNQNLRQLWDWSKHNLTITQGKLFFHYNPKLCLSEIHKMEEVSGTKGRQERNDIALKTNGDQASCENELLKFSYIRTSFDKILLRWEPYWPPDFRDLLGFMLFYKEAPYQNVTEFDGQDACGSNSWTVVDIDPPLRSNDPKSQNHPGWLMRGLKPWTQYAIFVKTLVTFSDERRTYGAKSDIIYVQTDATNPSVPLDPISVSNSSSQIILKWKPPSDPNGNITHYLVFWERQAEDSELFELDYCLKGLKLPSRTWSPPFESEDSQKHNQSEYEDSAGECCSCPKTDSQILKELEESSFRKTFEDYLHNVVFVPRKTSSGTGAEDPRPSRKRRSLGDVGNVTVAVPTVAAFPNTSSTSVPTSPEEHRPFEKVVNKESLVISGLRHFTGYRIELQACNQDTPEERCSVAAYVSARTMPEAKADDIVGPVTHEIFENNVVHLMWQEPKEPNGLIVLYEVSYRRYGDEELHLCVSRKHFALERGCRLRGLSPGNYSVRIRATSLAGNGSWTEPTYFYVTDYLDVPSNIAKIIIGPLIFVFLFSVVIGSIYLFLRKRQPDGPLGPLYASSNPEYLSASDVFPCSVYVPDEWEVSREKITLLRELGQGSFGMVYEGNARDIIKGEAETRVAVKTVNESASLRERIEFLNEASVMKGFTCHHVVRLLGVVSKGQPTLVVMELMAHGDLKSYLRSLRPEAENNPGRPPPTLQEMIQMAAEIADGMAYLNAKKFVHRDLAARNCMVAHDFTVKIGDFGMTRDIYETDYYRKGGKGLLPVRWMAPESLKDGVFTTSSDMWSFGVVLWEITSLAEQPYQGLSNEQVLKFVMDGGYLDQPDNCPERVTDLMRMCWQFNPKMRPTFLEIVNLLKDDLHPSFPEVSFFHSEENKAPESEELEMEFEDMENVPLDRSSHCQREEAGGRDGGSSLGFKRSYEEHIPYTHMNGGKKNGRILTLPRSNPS

Tests used:
[1] = target: intact mu opioid receptors (muOPRs) (Homo sapiens, UniProt P35372); parameters: intact mu opioid receptors (muOPRs); deca-histidine tag (N); made in house; host or cells: E. coli C43 (DE3); settings: read-out: Kd @ 210 nm, low affinity binding
[2] = target: T1, dopamine D1 receptor (D1DR) 89–98 (Homo sapiens, UniProt P21728); assay: UV spectroscopy binding to receptor peptide D1DR 89–98
T1 construct: D1DR 89–98

[3] = target: T2, dopamine D1 receptor (D1DR) 170–188 (Homo sapiens, UniProt P21728); assay: UV spectroscopy binding to receptor peptide D1DR 170–188
T2 construct: D1DR 170–188

MuOPR 211–226 = MuOPR 211–226 (Homo sapiens, UniProt P35372); settings: read-out: Kd @ 200 nm, MuOPR 211–226, low affinity binding
[4] = target: T3, insulin receptor (INSR) 281–299 (Homo sapiens, UniProt P06213); assay: UV spectroscopy binding to control peptide INSR 281–299
T3 construct: INSR 281–299

Row | Compound | Kd [1] [µM] | Kd [2] [µM] | Kd [3] [µM] | Kd (MuOPR 211–226) [µM] | Kd [4] [µM]
1 | CNC[C@H](O)c1ccc(O)c(O)c1 [Epinephrine HCl] | 1000 | 400 | 900 | 40 | 
2 | CN1CC[C@]23c4c5ccc(O)c4O[C@H]2[C@@H](O)C=C[C@H]3[C@H]1C5 [Morphine, morphine sulfate] |  |  |  |  | > 1000
3 | NCCc1c[nH]c2ccc(O)cc12 [Serotonin] |  | > 1000 | > 1000 |  | 

Structures can show the parent of a compound that is named as a salt.
